Results as given in paper PMC6010140, “Design, synthesis and docking study of novel coumarin ligands as potential selective acetylcholinesterase inhibitors” (Journal of Enzyme Inhibition and Medicinal Chemistry, 2017).
Entries after “also recorded” stand apart in the source; their conditions may differ.

System: hepatoma cell H4IIE cells
Conditions: 24 h, 0.07–2.5 µM

In the case of CCN(CC)CC(=O)Nc1nc(-c2cc3ccccc3oc2=O)cs1 [Compound 6c, 2-(Diethylamino)-N-(4-(2-oxo-2H-chromen-3-yl)thiazol-2-yl)acetamide], the “H4IIE hepatoma cell toxicity (in words)” value is reported as “negligible cell death and was non-toxic; also recorded: negligible cell death”.
